Measurements from paper PMC4826332 (Journal of medicinal chemistry, 2015).

By UniProt entry, the sequences of proteins in these tests, tags left out.
UniProt P05177, whole entry: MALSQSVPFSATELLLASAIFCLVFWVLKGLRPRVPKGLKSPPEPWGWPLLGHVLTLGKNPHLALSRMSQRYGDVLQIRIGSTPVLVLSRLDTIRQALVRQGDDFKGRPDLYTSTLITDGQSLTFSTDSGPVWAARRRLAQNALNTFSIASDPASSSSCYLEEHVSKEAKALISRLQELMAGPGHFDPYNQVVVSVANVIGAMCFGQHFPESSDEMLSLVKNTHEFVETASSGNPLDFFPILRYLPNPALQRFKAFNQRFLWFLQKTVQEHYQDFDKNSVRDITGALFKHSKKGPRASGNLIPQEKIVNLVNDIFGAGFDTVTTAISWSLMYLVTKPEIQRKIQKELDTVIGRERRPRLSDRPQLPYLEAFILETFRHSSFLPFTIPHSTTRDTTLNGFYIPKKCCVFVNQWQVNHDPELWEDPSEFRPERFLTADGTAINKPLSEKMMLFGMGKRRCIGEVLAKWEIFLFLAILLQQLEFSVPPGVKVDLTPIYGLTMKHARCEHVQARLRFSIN

Tests used:
CYP1B1 / CYP1A2 = CYP1B1 / CYP1A2 (Homo sapiens, UniProt P05177); assay: P450 1A2-dependent methoxyresorufin-O-demethylase; type: biochemical; conditions: pH 7.6
CYP1A1 / CYP1A2 = CYP1A1 / CYP1A2 (Homo sapiens, UniProt P05177); assay: P450 1A2-dependent methoxyresorufin-O-demethylase; type: biochemical; conditions: pH 7.6

Compound: O=c1cc(-c2ccccc2)c2ccc3c(c2o1)OCO3 [Compound 28, 6-Phenyl-8H-[1,3]dioxolo[4,5-h]chromen-8-one]
- selectivity ratio (CYP1B1 / CYP1A2): 8.5
- selectivity ratio (CYP1A1 / CYP1A2): > 56
